Data from ChEMBL document CHEMBL4177632 (Bioorg Med Chem, 2017).

Target: Aldo-keto reductase family 1 member B1 (Homo sapiens, UniProt P15121)
Experiment: Inhibition of recombinant human AKR1B1 using D,L-glyceraldehyde as substrate

IC50: 24.8 nM
Compound: O=C(O)Cc1nn(Cc2nc3cc(C(F)(F)F)ccc3s2)c(=O)c2ccccc12 [ZOPOLRESTAT]
